# High-throughput results as filed in PubChem BioAssay.
# E-selectin induc: induces E-selectin expression in human endothelial cells | activation, % at 7.58 µM | 260,000 compounds, 0.37% hits | HUVEC E-selectin immunofluorescence imaging; normalized: neutral wells 0, TNF-alpha wells 100 | P16581;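 active means mean E-selectin-positive cell signal at least 10% of the positive control, reached in at least 60% of replicates, without over 20% cell loss; inconclusive means no rule given, readout overlaps actives, possibly toxicity-flagged; inactive means the rest, including those meeting only one limit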
#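 System: HUVEC, human umbilical vein endothelial cells; quantity: 3,000 cells/well; buffer or medium: EGM-2 medium, gelatin-coated wells; dosing: single-point compound dose; detection: immunofluorescence imaging; evaluation: % PE-positive cells; benchmarks: TNF-alpha, DMSO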
# MLL AF4-AF9 inh: MLL-AF4/AF9 protein interaction inhibition | P42568 | AlphaScreen, biotin-AF4 peptide binding to FLAG-AF9 | inhibition, % at 10 µM | 350,000 compounds, 0.47% hits;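 active means every replicate reaching a set inhibition limit, whatever the replicate mean, cut at about 25% in these data; inconclusive means mean inhibition reaches that limit but some replicates miss it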;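 further: 0% = plate neutral control median and 100% = total signal loss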
# SIRT5 block: blocks human SIRT5 desuccinylation of peptide; Q9NXA8; Purified SirT5, succinyl-peptide AMC, trypsin-coupled fluorescence; inhibition, % at 15 µM; 330,000 compounds, 1.1% hits; AID 652115; in the data active means inhibition above about 15%; inconclusive means no clear call, values can overlap the other calls
# RAD52 inh: RAD52 (human) annealing inhibition; recombinant RAD52 DNA annealing, FRET fluorescence; 360,000 compounds, 0.46% hits; AID 651710; inhibition, % at 18.7 µM;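 active means every replicate showing at least 50% inhibition; inconclusive means mean inhibition at least 50% but not in every replicate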
# Yeast UUG start: yeast start codon fidelity modulation; AID 602363; activity score, % at 18.7 µM; S. cerevisiae UUG-firefly luciferase reporter, luminescence/redox ratio; 0.13% of 350,000 active;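 active means replicate mean at a twofold rise or more, about +100% in these data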;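 further: firefly luciferase made from a UUG start codon reports start codon fidelity; reporter light over untreated wells divided by growth signal over untreated wells; some hits fall short of that in this replicate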
# RAD54 branch: inhibitors of human RAD54 branch migration; RAD54 Holliday junction branch migration, FAM/BHQ fluorescence; inhibition, % at 10.4 µM; 360,000 compounds, 0.14% hits;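 active means mean normalized replicate activity at least 40 and at least half of replicates scoring 40 or more; inconclusive means only one of the two criteria met; inactive means mean below 40 and under half of replicates reaching 40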;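 further: 0% = median of neutral control wells and 100% = median of positive control wells; inhibitors cause a drop in the FAM fluorescence signal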
# DNA binder FP: counter-screen for RAD52 inhibitors: DNA binding compounds; 1,000 compounds, 8% hits; shares compounds with RAD52 inh; AID 652128; AC50, µM; Salmon sperm DNA/acridine orange FP displacement;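 active means fitted half-maximal concentration for signal loss at or below twice the highest dose tested, in every separate run, actives reach about 64 µM in these data; inconclusive means runs disagree, or flat partial signal loss, or poor fit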
# The depositor's hits bear a star; i = inactive; ? = inconclusive; nt = not tested or not shown. Shown are actives, neighbours in structure and some others; about 1.8% of the full set was active somewhere.
# Sequence of screens: E-selectin induc | MLL AF4-AF9 inh | SIRT5 block | RAD52 inh | Yeast UUG start | RAD54 branch | DNA binder FP
- Cc1cc(C)n(-c2nc(NCCCN(C)C)c3c4c(sc3n2)COC(C)(C)C4)n1
  nt | nt | 0.0 | -2.3 | -7.6 | 1.6 | nt
- Cc1cc(C)n(-c2nc(NCCN(C)C)c3c4c(sc3n2)CCCC4)n1
  -2.4 | 8.2 | -4.5 | 83.2* | nt | nt | i
- CCC(=O)c1ccc2c(c1)N(CCCN(C)C)c1ccccc1S2
  0.7 | 16.4 | -1.1 | 69.7* | -0.6 | 27.6 | i
- CC(=O)c1ccc2c(c1)N(CCCN(C)C)c1ccccc1S2
  -0.3 | 4.1 | -2.7 | -86.8 | -23.4 | 11.2 | nt
- C[C@H](CO)N1C[C@H](C)[C@@H](CN(C)C(=O)Nc2ccc(F)cc2)Oc2c(NS(=O)(=O)c3ccc(F)cc3)cccc2C1=O
  0.0 | -2.5 | -1.3 | -2.5 | 5.7 | -11.5 | nt
- CCCCCCCCCCCCCCCC[n+]1cccc2ccccc21
  nt | 26.1* | 6.4 | 89.7* | nt | nt | 31.8µM*
- CC1(C)Cc2c(c(-c3ccco3)nc3sc4c(NCCN5CCOCC5)ncnc4c23)CO1
  nt | 1.1 | 3.6 | -6.9 | nt | nt | nt
- CCN(CC)CCNc1ncnc2c1sc1nc(N3CCCC3)c3c(c12)CC(C)(C)OC3
  1.6 | 12.1 | 9.4 | 78.8* | nt | nt | i
- OCCNc1ncnc2c1sc1nc(N3CCOCC3)c3c(c12)CCC3
  -0.1 | -0.7 | 0.7 | 34.4 | -8.4 | -11.6 | nt
- CCN(CC)CCNc1ncnc2c1sc1nc(N3CCOCC3)c3c(c12)CCCC3
  -0.3 | 7.1 | -1.9 | 66.3* | nt | nt | 65.1µM*
- CN1C(=O)c2cc(NC(=O)C3CCCC3)ccc2OC[C@@H]2O[C@@H](CC(=O)Nc3ccccc3)CC[C@@H]21
  ? | -0.8 | -1.7 | 4.6 | 11.9 | 0.1 | nt
- CCN1CCN(Cc2c(C(=O)N/N=C(\C)c3ccc(Cl)cc3)nnn2-c2nonc2N)CC1
  nt | 8.0 | -0.3 | 94.0* | -10.3 | 15.5 | i
- C/C(=N\NC(=O)c1nnn(-c2nonc2N)c1CN1CCCCCC1)c1ccc(Br)cc1
  nt | 2.0 | -2.4 | -14.3 | -12.7 | 2.4 | nt
- COCCNC(=O)C[C@H]1C[C@H]2c3cc(NS(=O)(=O)c4ccc(F)cc4)ccc3O[C@H]2[C@@H](CO)O1
  0.3 | nt | nt | nt | 6.8 | -5.0 | nt
- CCc1nc(C)cc2c1sc1ccccc12
  nt | -2.8 | 0.2 | -11.1 | -48.9 | -8.0 | nt
- CC[n+]1c(C)cc2c(sc3ccccc32)c1C
  nt | -3.1 | -0.8 | 57.1* | nt | nt | i
- c1ccc2c(c1)C1=NCCN1c1ccccc1-2
  2.9 | 0.2 | -11.5 | 81.7* | nt | nt | ?
- C[C@H](CO)N1C[C@H](C)[C@H](CN(C)Cc2cccc(C(F)(F)F)c2)Oc2ncc(C#CCN(C)C)cc2C1=O
  0.1 | 4.0 | -2.4 | -23.0 | 17.7 | -9.2 | nt
- C[C@@H]1CCCCO[C@@H](CN(C)C(=O)Nc2ccc3c(c2)OCO3)[C@@H](C)CN([C@@H](C)CO)C(=O)c2cc(NC(=O)CCC(F)(F)F)ccc2O1
  -0.1 | 0.9 | -0.9 | -12.1 | nt | nt | nt
- CCCN1CCN(CCCNC(=O)C2CCN(c3nnc(-n4cccc4)s3)CC2)CC1
  nt | nt | nt | nt | -15.2 | -6.2 | nt
- CCN1CCN(CCCNC(=O)C2CCN(c3nnc(-n4c(C)ccc4C)s3)CC2)CC1
  -0.1 | 11.5 | nt | 72.7* | -23.9 | -1.9 | i
- CN(C)CCCNC(=O)c1ccc(-c2cc3nc(NCc4cccnc4)n(C)c(=O)c3s2)cc1
  -0.1 | -2.6 | nt | 75.9* | -8.3 | 34.7 | i
- COc1ccc(-c2cc3nc(NCCCN(C)C)n(C)c(=O)c3s2)c(C)c1
  -0.3 | 2.4 | -5.6 | 55.3* | -7.1 | 33.4 | i
- CN(C)CCCNc1nc2cc(-c3cnn(C)c3)sc2c(=O)n1C
  ? | ? | -0.8 | 59.3* | -24.0 | 35.4 | i
- Cc1cscc1-c1cc2nc(NCCCN(C)C)n(C)c(=O)c2s1
  -0.1 | 3.8 | -4.6 | 38.6 | -3.3 | 30.5 | nt
- CC(C)NC(=O)NCC[C@H]1CC[C@H](NC(=O)CN(C)C)[C@@H](CO)O1
  1.4 | 1.8 | 0.7 | 12.0 | -10.4 | -7.2 | nt
- CN1C(=O)c2cc(NC(=O)c3cccc(F)c3)ccc2OC[C@H]2O[C@@H](CC(=O)N3CCc4ccccc4C3)CC[C@H]21
  0.3 | 0.1 | -2.0 | -2.8 | -10.8 | 0.0 | nt

# Single records, from the list above. Order of screens: E-selectin induc | MLL AF4-AF9 inh | SIRT5 block | RAD52 inh | Yeast UUG start | RAD54 branch | DNA binder FP
# Entry for CC(=O)c1ccc2c(c1)N(CCCN(C)C)c1ccccc1S2 : -0.3 | 4.1 | -2.7 | -86.8 | -23.4 | 11.2 | nt
# Entry for CCc1nc(C)cc2c1sc1ccccc12 : nt | -2.8 | 0.2 | -11.1 | -48.9 | -8.0 | nt
# Entry for C[C@@H]1CCCCO[C@@H](CN(C)C(=O)Nc2ccc3c(c2)OCO3)[C@@H](C)CN([C@@H](C)CO)C(=O)c2cc(NC(=O)CCC(F)(F)F)ccc2O1 : -0.1 | 0.9 | -0.9 | -12.1 | nt | nt | nt
